# Measured affinities in a library of Ab-14 heavy chain variants

The measurements come from Li et al. 2023 (doi:10.1038/s41467-023-39022-2) through the FLAb antibody collection.

The target is the same throughout: PDVDLGDISGINAS, from the HR2 region of SARS-CoV-2 spike.

Each scFv is VH, the linker GGGGSGGGGSGGGGS, VL, as in the parent Ab-14, and differs from it in the CDRs of the heavy chain only.
VH: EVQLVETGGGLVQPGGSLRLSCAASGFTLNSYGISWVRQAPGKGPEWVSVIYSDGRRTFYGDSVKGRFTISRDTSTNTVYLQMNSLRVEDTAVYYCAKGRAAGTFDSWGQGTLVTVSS
VL: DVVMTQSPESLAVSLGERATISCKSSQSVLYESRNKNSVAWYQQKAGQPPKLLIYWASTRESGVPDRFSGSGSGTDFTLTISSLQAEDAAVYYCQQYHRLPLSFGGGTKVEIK

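Phage display of a naive human antibody library on the peptide gave the parent. The variants were designed computationally from a first round of random CDR variants and then made and measured. Their group label is 14H_En_HC (En: ensemble of fine-tuned language models; HC: hill climbing; a sequence that several methods proposed may carry one label only). The scFvs were displayed on barcoded MATa yeast, the peptide on MATalpha yeast. Mating (16 h, 30 °C) was followed by selection of diploids and sequencing of their barcodes. Read counts were normalised to the haploid input and turned into Kd by a linear fit to BCL2-family pairs of known affinity, for each replicate. Each pool was mated in six replicate cultures.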

Each variant is given by its three heavy chain CDRs, as the data file delimits them; those of the parent are GFTLNSYGIS, VIYSDGRRTFYGDSVK, GRAAGTFDS. Values are log10 of the apparent Kd in nM; lower means stronger binding. A mean of the replicates is given; it leaves out those without a signal. "ND" marks a missing value. The strain was present, yet no cells mated with the target were sequenced in that replicate, which points to weak or no binding. Of ten entries with the parent sequence, four were seen in most replicates (averages 0.34 to 2.37), three in one and three in none, so single entries are noisy.

CDR-H1,CDR-H2,CDR-H3,log10 Kd (nM) by replicate,mean log10 Kd (nM),empty controls
GFDLNEYGIS,VIYADGRRTFYSDSVK,GQNAGTFDM,-0.42 -0.31 -0.65 -0.78 -0.34 -0.23,-0.45,1/18 (2.15)
GFDLNEYGIS,VIYADGKRTFYADSVK,GQNAGTFDL,-0.15 -0.45 -0.31 -0.44 -0.63 -0.37,-0.39,0/18
GFDLEDYGIS,VIYADGRRTFYSDSVK,GEIAGTFDT,-0.12 -0.31 -0.51 -0.71 -0.23 -0.29,-0.36,0/18
GFDLEDYGIS,VIYADGRRTAYIDSVK,GEVAGTFDS,-0.60 -0.51 -0.54 -0.81 -0.13 0.13,-0.41,1/18 (1.38)
GFDLDEYGIS,VIYADGMRTFYADSVK,GNIAGTFDF,-0.48 -0.64 -0.63 -0.66 -0.57 -0.28,-0.54,0/18
GFDLNEYGIS,VIYADGMRTFYADSVK,GQVAGTFDF,-0.39 -0.75 -0.37 -0.75 -0.72 -0.21,-0.53,0/18
GFNLDEYGIS,VIYADGMRTFYADSVK,GEHAGTFDT,0.07 -0.04 -0.23 0.16 0.09 -0.04,0.00,0/18
GFDLNEYGIS,VIYADGSRTFYSDSVK,GNQAGTFDK,-0.44 -0.54 -0.25 0.17 -0.41 -0.40,-0.31,0/18
GFDLNEYGIS,VIYADGRRTFYADSVK,GEIAGTFDN,-0.57 -0.60 -0.49 -0.58 -0.66 -0.48,-0.56,1/18 (1.42)
GFDLNEYGIS,VIYADGRRTFYSDSVK,GEAGGTFDL,0.66 -0.40 -0.25 0.25 -0.13 -0.09,0.01,0/18
GFSLDEYGIS,VIYADGRRTAYADDVK,GNVAGTFDV,0.46 0.03 -0.37 -0.94 -0.62 -0.22,-0.28,0/18
GFDLNEYGIS,VIYADGRRTFYADSVK,GNTAGTFLL,-0.83 -1.70 -1.28 -2.13 -2.16 -1.30,-1.57,0/18
GFDLNEYGIS,VIYADGRRTQYIDSVK,GNEAGTFDE,-0.14 0.24 -0.06 0.45 0.50 0.55,0.26,0/18
GFNLNEYGIS,VIYADGMRTFYTDSVK,GETAGTFDK,0.11 -0.64 -0.96 -0.52 -0.64 -0.41,-0.51,0/18
GFDLNEYGIS,VIYADGRRTAYADSVK,GEVAGTFDS,-0.26 -0.49 -0.55 -0.57 -0.67 -0.55,-0.51,1/18 (4.26)
GFDLNEYGIS,VIYADGRRTFYTDSVK,GTTAGTFDV,-0.26 -0.16 -0.49 0.17 0.11 0.22,-0.07,0/18
GFDLNEYGIS,VIYADGRRTFYKDSVK,GNAAGTFDM,ND ND ND ND ND ND,ND,0/18
GFDLNEYGIS,VIYADGVRTAYSDSVK,GGNAGTFDS,-0.04 0.29 0.70 0.30 0.26 0.30,0.30,0/18
GFDLNEYGIS,VIYADGRRTYYSDSVK,GEVGGTFDV,-0.44 0.30 -0.36 0.01 -0.08 -0.19,-0.13,0/18
GFDLNEYGIS,VIYADGMRTFYADSVK,GEAGGTFDS,-0.12 0.09 0.32 -0.13 0.27 0.11,0.09,0/18
GFDLNEYGIS,VIYADGRRTFYADSVK,GEQAGTFDL,-1.17 -1.10 -0.51 -0.96 ND -1.28,-1.00,0/18
GFDLNEYGIS,VIYADGSRTFYADSVK,GEAAGSFDM,ND ND ND 0.54 ND ND,0.54,0/18
GFDLNEYGIS,VIYADGRRTFYSDSVK,GNTGGTFDE,-0.28 -0.41 -0.12 -0.49 -0.20 -0.26,-0.29,0/18
GFDLNEYGIS,VIYADGRRTFYSDSVK,GANGGTFDI,0.41 -0.31 -0.03 -0.63 -0.41 0.19,-0.13,0/18
GFDLDEYGIS,VIYADGRRTFYSDSVK,GGNAGTFDV,-0.56 -0.94 -0.83 -0.86 -0.74 -0.68,-0.77,0/18
GFNLNEYGIS,VIYADGRRKFYADSVK,GNTAGTFDE,-0.56 -0.65 -0.46 -0.89 -0.74 -0.32,-0.60,0/18
GFNLDEYGIS,VIYADGRRTFYIDSVK,GEVAGTFDF,2.50 0.56 0.89 0.40 0.83 0.90,1.01,0/18
GFDLNEYGIS,VIYADGVRTFYADSVK,GQIAGTFDQ,0.95 0.01 -0.43 0.06 0.01 0.11,0.12,0/18
GFGLDEYGIS,VIYADGRRTFYADSVK,GENAGTFDL,-0.66 -0.57 -0.82 -0.94 -0.99 -0.22,-0.70,0/18
GFDLNEYGIS,VIYADGRRTFYTDSVK,GQIAGTFDV,-0.34 -0.08 -0.37 -0.27 0.11 0.25,-0.12,0/18

Repeated from above, the 3 best binders with a signal in all replicates:

CDR-H1,CDR-H2,CDR-H3,log10 Kd (nM) by replicate,mean log10 Kd (nM),empty controls
GFDLNEYGIS,VIYADGRRTFYADSVK,GNTAGTFLL,-0.83 -1.70 -1.28 -2.13 -2.16 -1.30,-1.57,0/18
GFDLDEYGIS,VIYADGRRTFYSDSVK,GGNAGTFDV,-0.56 -0.94 -0.83 -0.86 -0.74 -0.68,-0.77,0/18
GFGLDEYGIS,VIYADGRRTFYADSVK,GENAGTFDL,-0.66 -0.57 -0.82 -0.94 -0.99 -0.22,-0.70,0/18

Empty control strains, which show no peptide, gave a signal in 1% of pairings with all heavy chain designs; the median was 2.08 and 95% of these signals were weaker than 0.84. No background was subtracted. For each scFv, signals with the empty controls are counted beside the result, with their mean in brackets. Values of this round are not directly comparable with the first-round values of the same sequences. The authors' rule: three or more of the six replicates give a measured affinity, fewer mean a poor binder.